Test results from PubChem BioAssay AID493056 (National Center for Advancing Translational Sciences (NCATS), 2011).
The list shows a part of the results, in another mix than the full data. Some salts or complexes appear as unconnected parts, following the source record. The source made the active and inactive calls. Rule as the data show it: active = enhancement above about 30%; inactive = the rest.
Also: 0% is about no effect.

Chains of the proteins cited; added tags and fusions are not shown.
UniProt P34981, whole entry: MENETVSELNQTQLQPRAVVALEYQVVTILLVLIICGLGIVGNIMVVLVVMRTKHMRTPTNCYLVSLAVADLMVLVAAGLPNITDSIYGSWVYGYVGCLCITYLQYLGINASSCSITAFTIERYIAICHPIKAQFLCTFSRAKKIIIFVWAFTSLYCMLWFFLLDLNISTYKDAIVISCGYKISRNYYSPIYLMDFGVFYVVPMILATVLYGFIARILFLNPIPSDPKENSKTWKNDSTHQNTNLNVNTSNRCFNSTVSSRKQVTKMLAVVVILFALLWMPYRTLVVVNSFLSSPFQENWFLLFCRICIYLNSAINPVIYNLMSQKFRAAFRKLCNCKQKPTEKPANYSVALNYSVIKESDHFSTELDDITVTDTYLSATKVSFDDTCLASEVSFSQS

The compounds below were run against Thyrotropin-releasing hormone receptor (Homo sapiens) (UniProt P34981) (assay: qHTS for Small Molecule Agonists and Allosteric Enhancers of Human TRH Receptor: Primary Screen for Enhancers). Conditions: TRHR cells, fluo-8 calcium fluorescence, EC20 TRH enhancement; at 2 µM; active compounds read high.
Description: NIH Chemical Genomics Center [NCGC] NIH Molecular Libraries Probe Centers Network [MLPCN] MLPCN Grant: MH089816-01 Assay Submitter (PI): Marvin Gershengorn This project aims to identify small drug-like molecules that activate (agonists) the thyrotropin releasing hormone (TRH) receptor (TRHR) or enhance its TRH-stimulated activity (allosteric enhancers). TRHR, a drug-accessible cell surface receptor expressed in specific brain regions, and its ligand TRH have been implicated in several central nervous system disorders, including depression and anxiety. Small molecule TRHR agonists or allosteric enhancers that are metabolically stable and able to cross the blood-brain barrier might serve as probes to elucidate the roles of brain TRH receptors in animal models, and might be valuable as lead compounds for the development of drugs to treat patients with central nervous system disorders. Upon TRHR-Gq activation in TRHR cells, intracellular calcium is released from stores in the endoplasmic reticulum. […] This primary screen measures compound-induced enhancement of an EC20 stimulation of the receptor by its native ligand.
For the HTS assay freshly prepared cells are plated at a density of 2000/well in 3 ul of complete DMEM medium containing 10% serum in 1536-well plates and cultured over night at 37 C in a humidified incubator with 5% CO2. The next day, 2 ul of a no wash calcium dye (ABD Bioquest) was added to the cells and plates were incubated at room temperature for 1 hour. For the assay, assay plates were loaded into the FDSS kinetic plate reader. A 10 cycle (1 second/cycle) baseline measurement is taken and then the FDSS online 1536 pintool delivers 23 nl of compound library (as well as TRH controls) to the plate. The plate is measured for kinetically at 1 cycle/sec for 180 seconds and is considered to be the agonist portion of the assay (eg, compounds which activate a positive calcium response during this portion are flagged as potential agonists). Following the 180 second read, 1 ul of either an EC20 (positive modulation assay) is delivered by an onboard pipette head. Measurements are taken kinetically for an additional 180 seconds. TRHR FDSS Screening Protocol 1. Reagent, 3 uL 2000 cells/well 1536 TC treated Black plate in media containing 10% FCS 2. Time, 18 hours, 33.5C 5% CO2 (cells grown at 37C) 3. Reagent, 2 uL ABD fluo-8 Ca dye 4. Time, 30 min-1.5hrs hours, Room temp (6 plates/batch) 5. Detector, EX 480/EM 530C, FDSS 10 cycles baseline (1sec/cycle) 6. Compound, 23 nL of stock solution from library 7. Detector, EX 480/EM 530C, FDSS 230 cycles (1sec/cycle) Agonist mode 8. Compound, 1 ul EC20 of TRH made up in HEPES HBSS, 10 nM final 9. Detector, EX 480/EM 530C, FDSS 100 cycles (1sec/cycle) Potentiator mode
`CCc1cc(C(=O)NCC2(N3CCCCC3)CCCCC2)sc1C` was tested, and the enhancement was inactive: -19.7%. In the case of `O=C(OC1CN2CCC1CC2)C1c2ccccc2C=Cc2ccccc21` (stereo not given), the enhancement is reported as inactive: -4.67%. `O=C(O)c1cccc(Nc2c([N+](=O)[O-])cc([N+](=O)[O-])cc2[N+](=O)[O-])c1` was tested, and the enhancement was inactive: -2.85%. For `CCOC(=O)N1CCC(Nc2ccc(C)cc2)CC1`, the enhancement was inactive: 1.47%. For `N/C(=N\O)c1c(N)no[n+]1[O-]`, the enhancement was inactive: -16.5%. For `COc1ccc(C(=O)NCC2(N3CCOCC3)CCCCC2)cc1OC`, the enhancement was inactive: -8.62%. With `O=C(NCC1(N2CCOCC2)CCCCC1)c1cc(Br)ccc1Cl` the enhancement was inactive: 2.76%. For `CN(C)C1(CNC(=O)c2cccc(C#N)c2)CCCCC1`, the enhancement was inactive: 0.59%. For `c1ccc(CN2CCC(Nc3ccccc3)CC2)cc1`, the enhancement was inactive: 1.39%. In the case of `CCCN1CCC(Nc2cc(OC)cc(OC)c2)CC1`, the enhancement is reported as inactive: 1.71%. With `O=C(NCC1(N2CCOCC2)CCCCC1)c1ccccc1` the enhancement was inactive: -2%. `CCOC(=O)C(CC)C1=NC(C)(C)Cc2ccccc21.O=[N+]([O-])c1cc([N+](=O)[O-])c(O)c([N+](=O)[O-])c1` (stereo not given) was tested, and the enhancement was inactive: -3.02%. In the case of `O=C(NCC1(N2CCOCC2)CCCCC1)c1ccccc1[N+](=O)[O-]`, the enhancement is reported as inactive: -7.32%. In the case of `N#Cc1ccc(C(=O)NCC2(N3CCCCC3)CCCCC2)cc1`, the enhancement is reported as inactive: -5.81%. With `O=C(NCC1(N2CCOCC2)CCCCC1)c1ccc([N+](=O)[O-])cc1` the enhancement was inactive: 0.469%. `CC(C)(C)OC(=O)N1CCC(N(C(=O)c2ccccc2)c2ccc(Cl)cc2)CC1` was tested, and the enhancement was inactive: -4.76%. With `Cc1ccccc1C(=O)NCC1(N(C)C)CCCCC1` the enhancement was inactive: 1.39%. In the case of `O=C(NCC1(N2CCCCC2)CCCCC1)c1ccco1`, the enhancement is reported as inactive: 7.77%. With `CC(C)(C)c1ccc(C(=O)NCC2(N3CCOCC3)CCCCC2)cc1` the enhancement was inactive: 12.8%. `CN(C)c1ccc(C(=O)NCC2(N3CCCCC3)CCCCC2)cc1` was tested, and the enhancement was inactive: 14.9%. With `CCN1CCC(Nc2cccc(F)c2)CC1` the enhancement was inactive: -0.538%. In the case of `Cc1ccc(C(=O)NCC2(N3CCCCC3)CCCCC2)o1`, the enhancement is reported as inactive: 5.27%. For `Fc1ccccc1NC1CCN(Cc2ccccc2)CC1`, the enhancement was inactive: 3.26%. For `CN(C)C1(CNC(=O)c2ccc(C(C)(C)C)cc2)CCCCC1`, the enhancement was inactive: -2.5%. `COc1cc(OC)cc(C(=O)NCC2(N3CCCCC3)CCCCC2)c1` was tested, and the enhancement was inactive: 5.11%. In the case of `CN1CCC(Nc2ccc(Cl)cc2)CC1`, the enhancement is reported as inactive: 12.3%. In the case of `CCCOc1ccc(C)cc1CN(CCCl)CCCl`, the enhancement is reported as inactive: -3.83%. With `COc1cccc(C(=O)N(c2cc(C)cc(C)c2)C2CCN(C(=O)OC(C)(C)C)CC2)c1` the enhancement was inactive: -4.38%. In the case of `COc1cc(C(=O)NCC2(N3CCOCC3)CCCCC2)cc(OC)c1OC`, the enhancement is reported as inactive: 1.13%. With `COc1cc(OC)cc(C(=O)NCC2(N3CCOCC3)CCCCC2)c1` the enhancement was inactive: -0.566%. With `CCC(CO)(C(=O)OC1CN2CCC1CC2)c1ccccc1` (stereo not given) the enhancement was inactive: -1.9%. For `CC(C)(C)OC(=O)N1CCC(Nc2ccccc2)CC1`, the enhancement was inactive: -3.23%. `O=C(O)C1(Nc2ccccc2)CCN(Cc2ccccc2)CC1` was tested, and the enhancement was inactive: -1.58%. In the case of `CCCOc1ccc(C(=O)NCC2(N(C)C)CCCCC2)cc1`, the enhancement is reported as inactive: -6.17%. `CCOc1ncccc1C(=O)NCC1(N2CCOCC2)CCCCC1` was tested, and the enhancement was inactive: 6.85%. For `CN1CCC(Nc2ccc(F)c(Cl)c2)CC1`, the enhancement was inactive: -4.59%. With `N#CC1(Nc2ccccc2)CCN(Cc2ccccc2)CC1` the enhancement was inactive: -3.46%. `O=C(NCC1(N2CCCCC2)CCCCC1)c1ccc(Cl)s1` was tested, and the enhancement was inactive: 3.3%. In the case of `O=C(OC1CN2CCC1CC2)C1c2ccccc2Oc2ccccc21` (stereo not given), the enhancement is reported as inactive: 22.7%. In the case of `COc1ccc(Cl)cc1C(=O)NCC1(N2CCOCC2)CCCCC1`, the enhancement is reported as inactive: 18.7%. In the case of `CCOC(=O)N1CCC(Nc2ccc(OC)cc2)CC1`, the enhancement is reported as inactive: 2.48%. With `O=C(NCC1(N2CCCCC2)CCCCC1)c1ccc(Cl)nc1` the enhancement was inactive: 5.86%. With `Cc1cc(C)cc(N(C(=O)c2ccccc2)C2CCN(C(=O)OC(C)(C)C)CC2)c1` the enhancement was inactive: -13.7%. For `O=C(NCC1(N2CCOCC2)CCCCC1)c1cc2ccccc2o1`, the enhancement was inactive: 8.71%. `CSc1ccccc1C(=O)NCC1(N2CCCCC2)CCCCC1` was tested, and the enhancement was inactive: 6.37%. For `COc1ccc(C(=O)NCC2(N3CCCCC3)CCCCC2)cc1`, the enhancement was inactive: 5.78%. With `COc1ccc(C(=O)NCC2(N3CCCCC3)CCCCC2)c(OC)c1OC` the enhancement was inactive: -2.17%. In the case of `CC(C)(C)OC(=O)N1CCC(N(C(=O)c2ccccc2)c2ccc(F)cc2)CC1`, the enhancement is reported as inactive: -5.15%. In the case of `O=C(NCC1(N2CCCCC2)CCCCC1)c1ccc(=O)[nH]c1`, the enhancement is reported as inactive: 1.52%. In the case of `O=C(NCC1(N2CCCCC2)CCCCC1)c1cccs1`, the enhancement is reported as inactive: -2.37%. `CCOC(=O)N1CCC(Nc2cccc(C)c2)CC1` was tested, and the enhancement was inactive: 6.53%. For `COc1cc(C(=O)NCC2(N(C)C)CCCCC2)ccc1OC(F)F`, the enhancement was inactive: 2.38%. For `Cc1ccc(OCC(C)C)c(CN(CCCl)CCCl)c1`, the enhancement was inactive: -9.92%. For `COc1ccccc1C(=O)NCC1(N2CCOCC2)CCCCC1`, the enhancement was inactive: -6.09%. In the case of `CCCCOc1ccc(C(=O)NCC2(N3CCOCC3)CCCCC2)cc1`, the enhancement is reported as inactive: -4.98%. With `O=C(NCC1(N2CCCCC2)CCCCC1)c1ccc(F)cc1` the enhancement was inactive: -3.22%. For `CCOC(=O)N1CCC(Nc2ccc(F)cc2)CC1`, the enhancement was inactive: -0.291%. For `COc1ccc(NC2CCN(CCc3ccccc3)CC2)c(OC)c1`, the enhancement was inactive: -0.268%. For `O=C(NCC1(N2CCOCC2)CCCCC1)c1ccc(Cl)cc1`, the enhancement was inactive: -4.09%. In the case of `CCOc1ccc(C)cc1CN(CCCl)CCCl`, the enhancement is reported as inactive: -9.16%. `O=C(NCC1(N2CCOCC2)CCCCC1)c1cc(=O)[nH]c2ccccc12` was tested, and the enhancement was inactive: 1.84%. For `COc1cc(C(=O)NCC2(N3CCCCC3)CCCCC2)ccc1OC(F)F`, the enhancement was inactive: -5.72%. `COc1ccc(NC2CCN(C(=O)OC(C)(C)C)CC2)cc1` was tested, and the enhancement was inactive: 2.01%. `CC(C)c1ccc(C(=O)NCC2(N3CCOCC3)CCCCC2)cc1` was tested, and the enhancement was inactive: 9.81%. With `CN1CCN(CCOC(=O)C(O)(c2ccccc2)c2ccccc2)CC1` the enhancement was inactive: -2.27%. With `O=[N+]([O-])c1cc([N+](=O)[O-])c(NCC2CCS(=O)(=O)C2)c([N+](=O)[O-])c1` (stereo not given) the enhancement was inactive: 2.41%. In the case of `O=C(NCC1(N2CCCCC2)CCCCC1)c1cccc(C(F)(F)F)c1`, the enhancement is reported as inactive: 17.1%. `CCCOc1cccc(C(=O)NCC2(N3CCOCC3)CCCCC2)c1` was tested, and the enhancement was inactive: -9.68%. With `CCN1CCC(Nc2ccc(Cl)cc2)CC1` the enhancement was inactive: -3.59%. With `N#CC1(Nc2ccccc2)CCN(CCc2ccccc2)CC1` the enhancement was inactive: -1.82%. In the case of `CSc1ccc(C(=O)NCC2(N3CCOCC3)CCCCC2)cc1`, the enhancement is reported as inactive: 11.1%. `CCOc1ccc(C(=O)NCC2(N3CCOCC3)CCCCC2)cc1` was tested, and the enhancement was inactive: -0.118%. In the case of `O=C(NCC1(N2CCCCC2)CCCCC1)c1cccc([N+](=O)[O-])c1`, the enhancement is reported as inactive: 0.918%. In the case of `O=C(NCC1(N2CCCCC2)CCCCC1)c1ccc(OC(F)F)cc1`, the enhancement is reported as inactive: 5.55%. `CCCCOc1ccccc1C(=O)NCC1(N2CCOCC2)CCCCC1` was tested, and the enhancement was inactive: 0.0532%. In the case of `O=C(NCC1(N2CCOCC2)CCCCC1)c1ccccc1Br`, the enhancement is reported as inactive: -5.24%. `CCCOc1ccc(C(=O)NCC2(N(C)C)CCCCC2)cc1OC` was tested, and the enhancement was inactive: -3.53%. `O=C(OC1CN2CCC1CC2)c1ccc([N+](=O)[O-])cc1` (stereo not given) was tested, and the enhancement was inactive: -0.833%. `O=C(NCC1(N2CCCCC2)CCCCC1)c1cncc(Br)c1` was tested, and the enhancement was inactive: -4.64%. For `COc1ccc2c(c1O)-c1c(O)c(OC)cc3c1[C@H](C2)[N+](C)(C)CC3.O=[N+]([O-])c1cc([N+](=O)[O-])c([O-])c([N+](=O)[O-])c1[O-]`, the enhancement was inactive: -5%. For `COc1cc(OC)c(C(=O)NCC2(N(C)C)CCCCC2)cc1OC`, the enhancement was inactive: -3.81%. `CC(C)c1ccc(NC2CCN(C(=O)OC(C)(C)C)CC2)cc1` was tested, and the enhancement was inactive: -1.89%. For `COc1ccc(CN(CCCl)CCCl)cc1Cl`, the enhancement was inactive: 4.55%. `CN(C)c1cccc(C(=O)NCC2(N3CCCCC3)CCCCC2)c1` was tested, and the enhancement was inactive: -3.15%. For `O=[N+]([O-])c1cc([N+](=O)[O-])c(OC2CCCCC2O)c([N+](=O)[O-])c1` (stereo not given), the enhancement was inactive: -5.63%.
